Laboratory results: US20070259375A1, “Biomarkers and Methods for Determining Sensitivity to Epidermal Growth Factor Receptor Modulators in Non-Small Cell Lung Cancer” (Bristol-Myers Squibb Company, priority 2004, published 2007)

Assays:
[1] = tested on: H226; test: Relative drug sensitivity in NSCLC cell lines, BrdU Cell Proliferation ELISA; assay type: cell-based, human; settings: H226 cell line, EGFR+
Protocol: (§1) The NSCLC cell lines were grown using standard cell culture conditions: DMEM supplemented to contain 10% fetal bovine serum, 100 IU/ml penicillin, […] streptomycin and 2 mM L-glutamine (all from Invitrogen Life Technologies, Carlsbad, Calif.). […] Cytotoxicity was assessed in cells by BrdU Cell Proliferation calorimetric ELISA (Roche Applied Science, Indianapolis, Ind.). This is a calorimetric immunoassay for the quantification of cell proliferation based on the measurement of BrdU incorporation during DNA synthesis. To carry out the assays, the NSCLC cells were plated at 2500-5000 cells/well in 96 well microtiter plates and 24 hours later diluted monoclonal antibody drug was added. […] The cells were incubated at 37° C. for 48 hours at which time the BrdU labeling reagent was added. After two hours the labeling medium was removed and cells were fixed and the DNA was denatured using a FixDenat solution. The anti-BrdU antibody conjugated with peroxidase was added and immune complexes were detected by the subsequent substrate reaction. The reaction product was quantified by measuring the absorbance of the samples in an ELISA reader at […]. The greater the absorbency, the greater the number of live cells. […] The IC50 is the drug concentration required to inhibit cell proliferation to 50% of that of untreated cells. Three to six independent BrdU assays were performed for each cell line.
(§2) For the analysis, cell lines ChagoK1 and L2987 were defined as sensitive and the remaining twelve cell lines were defined as resistant.

[2] = tested on: Calu6; test: as above; assay type: cell-based, human; settings: Calu6 cell line
Protocol: as §1, §2

[3] = tested on: A549; test: as above; assay type: cell-based, human; settings: A549 cell line, EGFR+
Protocol: as §1, §2

[4] = tested on: SK-MES1; test: as above; assay type: cell-based, human; settings: SK-MES1 cell line
Protocol: as §1, §2

[5] = tested on: H441; test: as above; assay type: cell-based, human; settings: H441 cell line
Protocol: as §1, §2

[6] = tested on: SK-LU1; test: as above; assay type: cell-based, human; settings: SK-LU1 cell line
Protocol: as §1, §2

[7] = tested on: H661; test: as above; assay type: cell-based, human; settings: H661 cell line
Protocol: as §1, §2

[8] = tested on: H2347; test: as above; assay type: cell-based, human; settings: H2347 cell line
Protocol: as §1, §2

[9] = tested on: ChagoK1; test: as above; assay type: cell-based, human; settings: ChagoK1 cell line
Protocol: as §1, §2

[10] = tested on: L2987; test: as above; assay type: cell-based, human; settings: L2987 cell line
Protocol: as §1, §2

[11] = tested on: H522; test: as above; assay type: cell-based, human; settings: H522 cell line, EGFR negative
Protocol: as §1, §2

[12] = tested on: LX1; test: as above; assay type: cell-based, human; settings: LX1 (LX-1) cell line, EGFR negative
Protocol: as §1, §2

[13] = tested on: SW900; test: as above; assay type: cell-based, human; settings: SW900 cell line
Protocol: as §1, §2

[14] = tested on: H838; test: as above; assay type: cell-based, human; settings: H838 cell line
Protocol: as §1, §2

[15] = tested on: LX1 lung xenograft; test: In vivo antitumor testing, lung xenograft model; settings: nude mice
Protocol: (§3) Regulation by EGFR inhibitors in lung xenograft models would lend additional support to the candidate markers, as being predictive of response.
(§4) Tumors were propagated in nude mice as subcutaneous (sc) transplants using tumor fragments obtained from donor mice. Tumor passage occurred approximately every two to four weeks. Tumors were then allowed to grow to the pre-determined size window (usually between 100-200 mg, tumors outside the range were excluded) and animals were evenly distributed to various treatment and control groups. […] Treated animals were checked daily for treatment related toxicity/mortality. Each group of animals was weighed before the initiation of treatment (Wt1) and then again following the last treatment dose (Wt2). The difference in body weight (Wt2-Wt1) provided a measure of treatment-related toxicity. Tumor response was determined by measurement of tumors with a caliper twice a week, until the tumors reached a predetermined target size of 1 gm or became necrotic. Tumor weights (mg) were estimated from the formula: Tumor weight=(length×width^2)/2 Antitumor activity was determined in terms of primary tumor growth inhibition. This was determined in two ways: (i) calculating the relative median tumor weight (MTW) of treated (T) and control (C) mice at various time points (effects were expressed as % T/C); and (ii) calculating the tumor growth delay (T-C value), defined as the difference in time (days) required for the treated tumors (T) to reach a predetermined target size compared to those of the control group (C). Statistical evaluations of data were performed using Gehan's generalized Wilcoxon test for comparisons of time to reach tumor target size (Gehan 1965). Statistical significance was declared at p<0.05. […]
(§5) Treated animals were checked daily for treatment related toxicity/mortality. When death occurred, the day of death was recorded. […]

[16] = tested on: A549 lung xenograft; test: In vivo antitumor testing, lung xenograft model; settings: nude mice
Protocol: as §3, §4, §5

[17] = tested on: L2987 lung xenograft; test: In vivo antitumor testing, lung xenograft model; settings: nude mice
Protocol: as §3, §4, §5

For cetuximab, the resistance/sensitivity classification [1] was “resistant”, the resistance/sensitivity classification [2] was “resistant” and the resistance/sensitivity classification [3] was “resistant”. For the same substance, the resistance/sensitivity classification [4] was “resistant”, the resistance/sensitivity classification [5] was “resistant” and the resistance/sensitivity classification [6] was “resistant”. The resistance/sensitivity classification [7] was “resistant”, the resistance/sensitivity classification [8] was “resistant” and the resistance/sensitivity classification [9] was “sensitive”. The resistance/sensitivity classification [10] was “sensitive”, the resistance/sensitivity classification [11] was “resistant” and the resistance/sensitivity classification [12] was “resistant”. The resistance/sensitivity classification [13] was “resistant”, the resistance/sensitivity classification [14] was “resistant” and the “sensitivity of lung xenograft model” value [15] was “resistant”. For the same substance, the “sensitivity of lung xenograft model” value [16] was “borderline sensitive” and the “sensitivity of lung xenograft model” value [17] was “sensitive”.
